Values quoted from earlier work as cited in the CATMoS acute toxicity set (Mansouri et al. 2021).
Where “and” joins values, the source holds several entries; their conditions need not be identical. Equal entries are not always repeated.

Assay: rat acute oral toxicity
Settings: in vivo
For `O=C(Cn1c(=O)sc2ccc(Cl)cc21)N1CCN(CCO)CC1`, the LD50 is given as 3600 mg/kg and 2300 mg/kg. In the case of `CC(C)=CCCC(C)=CC(=O)O`, the LD50 is given as 3700 mg/kg. For `CC(C)C(=O)c1c(C(C)C)nn2ccccc12`, the LD50 is listed as 1340 mg/kg. For `NC(=O)c1ncn([C@@H]2O[C@H](CO)[C@@H](O)[C@H]2O)c1O`, the LD50 is given as 2850 mg/kg. For `CCCC(=O)N1CCCN(c2nc(N)c3cc(OC)c(OC)cc3n2)CC1`, the LD50 is given as 980 mg/kg. For `C=CCOc1ccc(CC(=O)O)cc1Cl`, the LD50 is given as 1050 mg/kg. In the case of `CC(C)[C@@H]1CC[C@@H](C)C[C@H]1O`, the LD50 is given as 3300 mg/kg. In the case of `CC(S)C(=O)NCC(=O)O` (stereo unspecified), the LD50 is listed as 1300 mg/kg. For `CC(=O)OC/C=C(\C)CCC=C(C)C`, the LD50 is given as 6330 mg/kg. In the case of `Oc1c(Br)cc(Cl)cc1Cc1cc(Cl)cc(Br)c1O`, the LD50 is given as 3700 mg/kg. In the case of `CCCCCCC(C=O)=Cc1ccccc1`, the LD50 is listed as 3100 mg/kg. In the case of `CN1CCC2=C(C1)c1ccccc1Cc1ccccc12`, the LD50 is given as 554 mg/kg. In the case of `O=c1[nH]cc(F)c(=O)[nH]1`, the LD50 is listed as 230 mg/kg. For `CCCC(=O)OCC`, the LD50 is given as 13000 mg/kg. In the case of `COc1ccc(C(=O)NCc2cccnc2)cc1C(=O)NCc1cccnc1`, the LD50 is listed as 3000 mg/kg. In the case of `COc1ccc(C[C@H](C)NC[C@@H](O)c2ccc(O)c(NC=O)c2)cc1` (racemic), the LD50 is given as 3130 mg/kg.
